Laboratory results from US9617251B2, “Indanylaminopyridylcyclopropanecarboxylic acids, pharmaceutical compositions and uses thereof” (BOEHRINGER INGELHEIM INTERNATIONAL GMBH, priority 2015, dated 2017).

Chains of the proteins cited; added tags and fusions are not shown.
UniProt P10632, whole entry: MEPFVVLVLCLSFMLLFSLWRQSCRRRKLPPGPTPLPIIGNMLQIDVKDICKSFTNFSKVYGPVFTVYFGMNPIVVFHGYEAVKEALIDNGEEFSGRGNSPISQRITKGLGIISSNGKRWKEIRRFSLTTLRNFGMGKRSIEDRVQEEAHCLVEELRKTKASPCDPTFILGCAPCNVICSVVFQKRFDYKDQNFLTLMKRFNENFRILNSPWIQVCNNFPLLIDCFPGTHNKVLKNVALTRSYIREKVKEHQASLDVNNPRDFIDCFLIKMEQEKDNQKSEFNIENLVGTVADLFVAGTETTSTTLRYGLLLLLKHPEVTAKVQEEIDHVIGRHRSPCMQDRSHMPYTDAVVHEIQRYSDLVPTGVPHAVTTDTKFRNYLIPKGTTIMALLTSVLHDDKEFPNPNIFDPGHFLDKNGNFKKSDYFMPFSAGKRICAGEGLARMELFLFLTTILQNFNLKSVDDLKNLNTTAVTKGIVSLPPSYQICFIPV
UniProt P11712, whole entry: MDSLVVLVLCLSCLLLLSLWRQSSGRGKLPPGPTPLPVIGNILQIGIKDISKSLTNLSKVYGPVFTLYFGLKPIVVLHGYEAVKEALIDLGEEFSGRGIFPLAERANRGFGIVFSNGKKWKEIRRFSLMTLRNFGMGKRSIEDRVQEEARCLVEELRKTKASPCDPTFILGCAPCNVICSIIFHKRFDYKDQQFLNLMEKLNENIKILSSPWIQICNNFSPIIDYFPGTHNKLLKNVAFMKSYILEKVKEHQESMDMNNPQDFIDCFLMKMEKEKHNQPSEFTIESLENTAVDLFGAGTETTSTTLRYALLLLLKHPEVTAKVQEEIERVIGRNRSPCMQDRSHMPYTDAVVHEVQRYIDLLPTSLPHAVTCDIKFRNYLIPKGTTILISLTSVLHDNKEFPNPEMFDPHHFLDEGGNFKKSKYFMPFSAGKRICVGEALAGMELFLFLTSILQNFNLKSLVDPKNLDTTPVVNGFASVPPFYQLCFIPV

Key:
[1] = Chemical stability: degradation kinetics in acidic aqueous media (pH ca. 1.2), HPLC recovery; conditions: pH value of ca. 1.2 (acetonitrile/0.1 M aqueous HCl 2:3), 37° C.
Method: Degradation kinetics is used to simulate chemical stability of compounds in the acidic part of the gastro intestinal tract. […] Their application as medical drugs to treat human diseases is therefore less restricted and troublesome.
The chemical stability of the compounds of the invention at pH value of ca. 1.2 is determined as follows:
Compound is dissolved in an HPLC vial either in a mixture of acetonitrile/0.1 M aqueous HCl (2:3; pH ca. 1.2) or in a mixture of acetonitrile/McIlvaine buffer pH 7.4 (2:3) to get a concentration of approximately 0.25 mg/ml. The vial was then transferred into an HPLC autosampler system and maintained at a temperature of 37° C. A first sample is taken and injected immediately into a standard HPLC system with a UV DAD detector. Further samples are injected after 2, 4, 6, 8 and 10 hours. Amount of degraded compound is measured by determining the recovery rate of compound [%] for each injection using an HPLC standard gradient method. Therefore the peak area of the main peak for the first injection (AUt0) is determined and set as 100%. Peak area of the main peak is determined also for the further injections (AUtn, n=2, 4, 6, 8, 10) and expressed as fraction of (AUt0)/(AUtn, n=2, 4, 6, 8, 10) [%].

[2] = Aqueous solubility in buffer vs acetonitrile/water (1/1), LC-UV; conditions: buffer pH 2.2, 24 h shaking, 2.5% DMSO
Method: The aqueous solubility of the compounds of the invention is determined by comparing the amount dissolved in buffer to the amount in an acetonitrile/water (1/1) solution. Starting from a 10 mM DMSO stock solution aliquots are diluted with acetonitrile/water (1/1) or buffer, respectively. After 24 h of shaking, the solutions are filtrated and analyzed by LC-UV. The amount dissolved in buffer is compared to the amount in the acetonitrile solution.
Solubility is usually being measured from 0.001 to 0.125 mg/mL at a DMSO concentration of 2.5%. If more than 90% of the compound is dissolved in buffer, the value is marked with “>”.

[3] = target: cytochrome P450 2C8-isoenzyme (Homo sapiens, UniProt P10632); experiment: Inhibition of CYP-2C8 (deethylation of amodiaquine, human liver microsomes); conditions: CYP-2C8, human liver microsomes, amodiaquine 1 μM, 37° C.
Method: The inhibition of cytochrome P450 2C8-isoenzyme catalyzed deethylation of amodiaquine by the test compound is assayed at 37° C. with human liver microsomes. All assays are carried out on a robotic system in 96 well plates. The final incubation volume contains TRIS buffer (0.1 M), MgCl2 (5 mM), human liver microsomes (0.05 mg/mL), amodiaquine (1 μM) and the test compound at five different concentrations or no compound (high control) in duplicate (e.g. highest concentration 10-50 μM with subsequent serial 1:4 dilutions). Following a short preincubation period, reactions are started with the cofactor (NADPH, 1 mM) and stopped by cooling the incubation down to 8° C. and subsequently by addition of one volume of acetonitrile. An internal standard solution—the stable isotope d5-desethylamodiaquine—is added after quenching of incubations. Peak area analyte (=metabolite formed) and internal standard is determined by LC-MS/MS. […] Within each of the assay runs, the IC50 of a positive control inhibitor (Montelukast) is determined. Experimental IC50 values are calculated by least square regression according to the following equation: % control activity=(100% control activity/(1+(I/IC50)S))−B with I=inhibitor concentration; S=slope factor; B=background activity (lower plateau of the inhibition curve) […]

[4] = target: cytochrome P450 2C9-isoenzyme (Homo sapiens, UniProt P11712); experiment: Inhibition of CYP-2C9 (hydroxylation of diclofenac, human liver microsomes); conditions: CYP-2C9, human liver microsomes, diclofenac 10 μM, 37° C.
Method: The inhibition of cytochrome P450 2C9-isoenzyme catalyzed hydroxylation of diclofenac by the test compound is assayed at 37° C. with human liver microsomes. All assays are carried out on a robotic system in 96 well plates. The final incubation volume contains TRIS buffer (0.1 M), MgCl2 (5 mM), human liver microsomes (0.1 mg/mL), diclofenac (10 μM) and the test compound at five different concentrations or no compound (high control) in duplicate (e.g., highest concentration 10-50 μM with subsequent serial 1:4 dilutions). Following a short preincubation period, reactions are started with the cofactor (NADPH, 1 mM) and stopped by cooling the incubation down to 8° C. and subsequently by addition of one volume of acetonitrile. An internal standard solution—the stable isotope ^13C6-hydroxydiclofenac—is added after quenching of incubations. Peak area analyte (=metabolite formed) and internal standard is determined by LC-MS/MS. […] Within each of the assay runs, the IC50 of a positive control inhibitor (sulfaphenazole) is determined. Experimental IC50 values are calculated by least square regression according to the following equation: % control activity=(100% control activity/(1+(I/IC50)S))−B with I=inhibitor concentration; S=slope factor; B=background activity (lower plateau of the inhibition curve) […]

Structure (SMILES) | Amount of degradation after 2 h [1] | Solubility at pH value 2.2 [2] [μg/mL] | IC50 [3] [µM] | IC50 [4] [µM]
Cc1cc(C(=O)NCC(C)(C)O)cc(C)c1-c1ccc(F)c2c1CC[C@H]2Oc1ccc([C@H]2C[C@@H]2C(=O)O)cc1 | 3% | <1 | – | –
Cc1cc(OCCC(C)(C)O)cc(C)c1-c1ccc(F)c2c1CC[C@H]2Oc1ccc([C@H]2C[C@@H]2C(=O)O)cc1 | 8% | <1 | – | –
Cc1cccc(C)c1-c1ccc(F)c2c1CC[C@H]2Oc1ccc([C@H]2CC2C(=O)O)cc1 (some centres unmarked) | 8% | – | – | –
O=C(O)[C@H]1C[C@@H]1c1ccc(N[C@@H]2CCc3c(-c4c(F)cc(F)cc4F)ccc(F)c32)nc1 | – | 82 | > 50 | 34
Cc1c(C#N)cccc1-c1ccc(F)c2c1CC[C@H]2Oc1ccc([C@H]2C[C@@H]2C(=O)O)cc1 | 2.5%^ | <1 | – | –
Cc1cc(-c2nnn(C)n2)cc(C)c1-c1ccc(F)c2c1CC[C@H]2Oc1ccc([C@H]2C[C@@H]2C(=O)O)cc1 | – | <1 | – | –
Cc1cc(O[C@@H]2CCOC2)cc(C)c1-c1ccc(F)c2c1CC[C@H]2Nc1ccc([C@H]2C[C@@H]2C(=O)O)cn1 | – | 95 | > 50 | > 50
